# From PubChem BioAssay AID813 (Sanford-Burnham Center for Chemical Genomics, 2007)
# Sequences of proteins named here, by UniProt entry; tags and fusion partners are left off.
# UniProt P05186, whole entry: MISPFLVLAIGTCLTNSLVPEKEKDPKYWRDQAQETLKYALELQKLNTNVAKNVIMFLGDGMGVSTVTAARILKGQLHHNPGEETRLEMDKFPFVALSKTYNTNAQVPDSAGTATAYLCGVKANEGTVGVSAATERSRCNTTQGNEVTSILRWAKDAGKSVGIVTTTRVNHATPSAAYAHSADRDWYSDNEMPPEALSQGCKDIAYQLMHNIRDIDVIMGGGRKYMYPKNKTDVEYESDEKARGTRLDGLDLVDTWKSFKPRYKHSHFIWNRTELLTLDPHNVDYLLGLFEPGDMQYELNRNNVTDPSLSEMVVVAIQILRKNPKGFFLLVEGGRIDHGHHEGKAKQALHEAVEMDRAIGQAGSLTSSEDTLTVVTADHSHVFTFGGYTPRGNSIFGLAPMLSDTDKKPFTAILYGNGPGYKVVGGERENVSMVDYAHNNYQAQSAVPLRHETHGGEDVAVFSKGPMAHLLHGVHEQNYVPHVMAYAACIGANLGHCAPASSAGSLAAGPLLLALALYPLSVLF
# The list shows a part of the results, in another mix than the full data. Active and inactive are the calls of the source.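 The calls were made as follows: active = activation factor of at least 2 at 20 µM, relative to controls; inactive = the rest.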
# Target: Alkaline phosphatase, tissue-nonspecific isozyme (Homo sapiens) (UniProt P05186)
# Test: human TNAP enzyme activators, primary screen, biochemical, luminescent, intermediate phosphate acceptor level (AID 813)
# Conditions: purified TNAP, CDP-star luminescence, 100 mM DEA, 30 min, at 20 µM; hits give high values, scale: 0 levamisole-inhibited, 1 vehicle-only enzyme
row,Structure (SMILES),activation factor
1,COc1ccc(NC2CCN(CCc3ccccc3)CC2)c(OC)c1,inactive
2,O=C(OC1CN2CCC1CC2)C1c2ccccc2Oc2ccccc21 (configuration not stated),inactive: 1
3,N#CC1(Nc2ccccc2)CCN(CCc2ccccc2)CC1,inactive
4,N/C(=N\O)c1c(N)no[n+]1[O-],inactive
5,CCC(CO)(C(=O)OC1CN2CCC1CC2)c1ccccc1 (configuration not stated),inactive
6,CCOc1ncccc1C(=O)NCC1(N2CCOCC2)CCCCC1,inactive
7,Fc1ccccc1NC1CCN(Cc2ccccc2)CC1,inactive
